Data: patent US12257282B2, “Mixtures and formulations” (CAMURUS AB, priority 2016, dated 2025)

Details: 0.38 wt % EDTA in EtOH/PG (1/1 wt/wt)

Which “required minimum amount of alkylamine needed to solubilize EDTA” value does the source give for Tris(hydroxymethyl)aminomethane here?
The value was “about 5 mol per 1 mol of EDTA”.
